The subject of this test is bronchospheres (human bronchial epithelial cells). As to the kind of experiment: Bronchosphere assay of secreted recombinant human proteins, qPCR of cell type markers and immunostaining. The test is classed as cell-based. The procedure: Human bronchial epithelial (HBE) cells and culture media were obtained from Lonza. Air-liquid interface cultures using passage 2 (P2) cells were performed as previously described (Danahay, H. et al., American journal of physiology. Lung cellular and molecular physiology 282, L226-236 (2002)). For three-dimensional culturing of HBE cells, P1 cells were trypsinized and resuspended (30,000 cells/ml) in HBE differentiation media containing 5% growth factor-reduced Matrigel (BD Biosciences). 20 μl of suspension was plated in each well of a 384-well plate (Greiner) pre-coated with 10 μl of a 25% solution of Matrigel (BD Biosciences) in HBE differentiation media. Wells were fed or treated at day 2 and day 8 of culture by adding 30 μl of differentiation media containing the appropriate treatment. Three-dimensional cultures were analyzed at the time points indicated.
Immunofluorescence of HBEC bronchospheres was performed as described previously for MCF10A cysts (Debnath, J. et al., Methods 30, 256-268 (2003) with the following modifications. After incubation with fluorescence-conjugated secondary antibodies, DNA was stained with a 1:1 mix of PBS and ProLong gold antifade containing DAPI. Confocal microscopy was performed at room temperature on a microscope (Zeiss LSM510 Meta) using an EC Plan-Neofluar 10×/0.30 dry objective (Zeiss), an EC Plan-Neofluor 20×/0.5 dry objective (Zeiss), a C-Apochromat 40×/1.2 W corr (Zeiss), or a C-Apochromat 63×/1.2 W Corr objective (Zeiss). Images were collected with Zen confocal software (Zeiss). Scale bars were added, and images were processed using Zen (Zeiss) and Photoshop (Adobe). Air-liquid interface (ALI) cultures were processed for immunofluorescence analysis after 14 days of culture at ALI by rinsing the apical surface of each filter with PBS, and then fixing in 4% paraformaldehyde for 4 hours. Filters were washed with IF buffer (130 mM NaCl, 7 mM Na2HPO4, 3.5 mM NaH2PO4, 7.7 mM NaN3, 0.1% bovine serum albumin, 0.2% Triton X-100, 0.05% Tween-20), blocked with IF wash containing 10% goat serum, and stained with primary antibody in IF wash containing 10% goat serum overnight at 4° C. […] To quantify the total staining area of ALI cultures, 10×13 images were collected with a plan Neofluar 10×0.3 NA Ph1 objective (EC; Carl Zeiss, Inc.) on a microscope (Axiovert 200; Carl Zeiss, Inc.) equipped with a motorized stage and a camera (Orca-ER-1394; Hamamatsu Photonics) controlled by Axiovision software (Carl Zeiss, Inc.) and used to generate a single composite image using the MOSAIX function in Zeiss Axiovision. Quantification of the total staining area was performed with ImageJ. […] Cells positive for MUC5AC, MUC5B, or cilia (acetylated α-Tubulin) staining were counted manually. […]
(Real-time PCR tracks product formation cycle by cycle.)

In the case of “IFN-α-2: secreted, recombinant human protein profiled in the bronchosphere assay”, the “change in expression of at least one cell-type marker, initial screen” value (55 proteins tested at 3.3, 10 and 30 ng/mL) is listed as “concentration-dependent change”. For the same substance, the “expression of both of the ciliated cell markers” value (markers FOXJ1, DNAI2) is “attenuated”. The “expression of at least two of the goblet cell markers” value (markers MUC5AC, MUC5B, FOXA3) is “enhanced”. Moreover, the “change in expression of at least one of the cell-type markers, on validation” value (validation, expanded concentration range) was “robust change”.

Values taken from patent publication US9944700B2, “Notch2 binding molecules for treating respiratory diseases” (NOVARTIS AG, priority 2013, dated 2018).
